Experimental data: article PMC6339850 (ACS chemical neuroscience, 2018)

The chains behind the UniProt entries cited, without tags or fusion partners. Where a name states a change or a piece, a line headed by the entry shows the natural chain unless it says otherwise.
UniProt P33033: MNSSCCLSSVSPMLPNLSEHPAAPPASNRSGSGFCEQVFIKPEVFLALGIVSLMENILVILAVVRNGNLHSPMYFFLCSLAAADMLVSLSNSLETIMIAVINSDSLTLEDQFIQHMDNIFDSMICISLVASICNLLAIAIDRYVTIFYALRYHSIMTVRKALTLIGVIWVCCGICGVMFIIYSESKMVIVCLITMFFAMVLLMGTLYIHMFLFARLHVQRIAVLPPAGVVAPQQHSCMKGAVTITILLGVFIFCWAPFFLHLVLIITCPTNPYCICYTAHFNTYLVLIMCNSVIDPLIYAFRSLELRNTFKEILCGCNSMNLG
UniProt P56450, whole entry: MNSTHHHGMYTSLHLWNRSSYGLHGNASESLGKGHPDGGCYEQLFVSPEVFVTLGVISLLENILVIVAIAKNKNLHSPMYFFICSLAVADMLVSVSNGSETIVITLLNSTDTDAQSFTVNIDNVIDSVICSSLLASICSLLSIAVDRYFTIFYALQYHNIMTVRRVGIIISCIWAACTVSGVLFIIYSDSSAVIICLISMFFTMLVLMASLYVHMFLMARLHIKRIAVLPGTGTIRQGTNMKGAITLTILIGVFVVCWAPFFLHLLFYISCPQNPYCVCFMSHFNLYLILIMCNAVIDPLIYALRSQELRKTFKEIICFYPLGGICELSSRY

Assays:
mouse MC3R [1] = target: T1, mouse MC3R (Mus musculus, UniProt P33033); assay: cAMP AlphaScreen antagonist assay
mouse MC4R [2] = target: T2, mouse MC4R (Mus musculus, UniProt P56450); assay: cAMP AlphaScreen antagonist assay
mouse MC4R [3] = target: T2, mouse MC4R; assay: cAMP AlphaScreen agonist assay, HEK293 cells stably expressing mouse MC4R
mouse MC3R [4] = target: T1, mouse MC3R; assay: cell-based

Work on `C[C@@H]1NC(=O)[C@H](CC(N)=O)NC(=O)[C@@H](Cc2ccccc2)NC(=O)[C@H](Cc2ccccc2)NC(=O)[C@@H](CCCNC(=N)N)NC(=O)[C@@H]2CCCN2C(=O)[C@H]2CCCN2C(=O)[C@H](Cc2ccccc2)NC1=O` [Peptide 7, c[Pro-DArg-Phe-DPhe-Asn-Ala-Phe-DPro]] yielded a Kb (mouse MC3R [1]) of over 3.16 µM.
With `C[C@@H]1NC(=O)[C@H](CN)NC(=O)[C@@H](Cc2ccccc2)NC(=O)[C@H](Cc2ccccc2)NC(=O)[C@@H](CCCNC(=N)N)NC(=O)[C@@H]2CCCN2C(=O)[C@H]2CCCN2C(=O)[C@H](Cc2ccccc2)NC1=O` [Peptide 14, c[Pro-DArg-Phe-DPhe-Dap-Ala-Phe-DPro]] the Kb (mouse MC4R [2]) was 0.151 µM and the EC50 (mouse MC4R [3]) was over 100 µM.
`C[C@@H]1NC(=O)[C@H](CN)NC(=O)[C@@H](Cc2ccccc2)NC(=O)[C@@H](Cc2ccccc2)NC(=O)[C@H](CCCNC(=N)N)NC(=O)[C@@H]2CCCN2C(=O)[C@H]2CCCN2C(=O)[C@H](Cc2ccccc2)NC1=O` [Peptide 15, c[Pro-Arg-DPhe-DPhe-Dap-Ala-Phe-DPro]] showed a Kb (mouse MC4R [2]) of 0.0398 µM and an EC50 (mouse MC4R [3]) of over 100 µM.
`C[C@@H]1NC(=O)[C@H](CN)NC(=O)[C@@H](Cc2ccccc2)NC(=O)[C@@H](Cc2ccccc2)NC(=O)[C@@H](CCCNC(=N)N)NC(=O)[C@@H]2CCCN2C(=O)[C@H]2CCCN2C(=O)[C@H](Cc2ccccc2)NC1=O` [Peptide 16, c[Pro-DArg-DPhe-DPhe-Dap-Ala-Phe-DPro]] was tested, and the Kb (mouse MC4R [2]) was 1.58 µM and the EC50 (mouse MC4R [3]) was over 100 µM.
Work on `C[C@@H]1NC(=O)[C@H](CN)NC(=O)[C@H](Cc2ccccc2)NC(=O)[C@@H](Cc2ccccc2)NC(=O)[C@@H](CCCNC(=N)N)NC(=O)[C@@H]2CCCN2C(=O)[C@H]2CCCN2C(=O)[C@H](Cc2ccccc2)NC1=O` [Peptide 13, c[Pro-DArg-DPhe-Phe-Dap-Ala-Phe-DPro]] yielded an EC50 (mouse MC4R [3]) of over 100 µM.
For `C[C@@H]1NC(=O)[C@H](CC(N)=O)NC(=O)[C@H](Cc2ccccc2)NC(=O)[C@@H](Cc2ccccc2)NC(=O)[C@H](CCCNC(=N)N)NC(=O)[C@@H]2CCCN2C(=O)[C@H]2CCCN2C(=O)[C@H](Cc2ccccc2)NC1=O` [Peptide 4, c[Pro-Arg-DPhe-Phe-Asn-Ala-Phe-DPro]], the EC50 (mouse MC3R [4]) was over 100 µM and the Kb (mouse MC3R [1]) was 1.58 µM.
`C[C@@H]1NC(=O)[C@H](CN)NC(=O)[C@@H](Cc2ccccc2)NC(=O)[C@H](Cc2ccccc2)NC(=O)[C@H](CCCNC(=N)N)NC(=O)[C@@H]2CCCN2C(=O)[C@H]2CCCN2C(=O)[C@H](Cc2ccccc2)NC1=O` [Peptide 12, c[Pro-Arg-Phe-DPhe-Dap-Ala-Phe-DPro]] was tested, and the Kb (mouse MC4R [2]) was 0.0457 µM and the EC50 (mouse MC4R [3]) was over 100 µM.
`C[C@@H]1NC(=O)[C@H](CN)NC(=O)[C@H](Cc2ccccc2)NC(=O)[C@@H](Cc2ccccc2)NC(=O)[C@H](CCCNC(=N)N)NC(=O)[C@@H]2CCCN2C(=O)[C@H]2CCCN2C(=O)[C@H](Cc2ccccc2)NC1=O` [Peptide 11, c[Pro-Arg-DPhe-Phe-Dap-Ala-Phe-DPro]] was tested, and the Kb (mouse MC4R [2]) was 0.00398 µM.
For `C[C@@H]1NC(=O)[C@H](CC(N)=O)NC(=O)[C@@H](Cc2ccccc2)NC(=O)[C@@H](Cc2ccccc2)NC(=O)[C@H](CCCNC(=N)N)NC(=O)[C@@H]2CCCN2C(=O)[C@H]2CCCN2C(=O)[C@H](Cc2ccccc2)NC1=O` [Peptide 8, c[Pro-Arg-DPhe-DPhe-Asn-Ala-Phe-DPro]], the EC50 (mouse MC3R [4]) was over 100 µM and the Kb (mouse MC3R [1]) was over 3.16 µM.
Compound `C[C@@H]1NC(=O)[C@H](CN)NC(=O)[C@H](Cc2ccccc2)NC(=O)[C@H](Cc2ccccc2)NC(=O)[C@@H](CCCNC(=N)N)NC(=O)[C@@H]2CCCN2C(=O)[C@H]2CCCN2C(=O)[C@H](Cc2ccccc2)NC1=O` [Peptide 10, c[Pro-DArg-Phe-Phe-Dap-Ala-Phe-DPro]] has a Kb (mouse MC4R [2]) of 0.17 µM.
`C[C@@H]1NC(=O)[C@H](CC(N)=O)NC(=O)[C@H](Cc2ccccc2)NC(=O)[C@H](Cc2ccccc2)NC(=O)[C@@H](CCCNC(=N)N)NC(=O)[C@@H]2CCCN2C(=O)[C@H]2CCCN2C(=O)[C@H](Cc2ccccc2)NC1=O` [Peptide 3, c[Pro-DArg-Phe-Phe-Asn-Ala-Phe-DPro]] gave an EC50 (mouse MC3R [4]) of over 100 µM and a Kb (mouse MC3R [1]) of over 3.16 µM.
For `C[C@@H]1NC(=O)[C@H](CC(N)=O)NC(=O)[C@H](Cc2ccccc2)NC(=O)[C@@H](Cc2ccccc2)NC(=O)[C@@H](CCCNC(=N)N)NC(=O)[C@@H]2CCCN2C(=O)[C@H]2CCCN2C(=O)[C@H](Cc2ccccc2)NC1=O` [Peptide 6, c[Pro-DArg-DPhe-Phe-Asn-Ala-Phe-DPro]], the EC50 (mouse MC3R [4]) was over 100 µM and the Kb (mouse MC3R [1]) was over 3.16 µM.
Work on `C[C@@H]1NC(=O)[C@H](CC(N)=O)NC(=O)[C@@H](Cc2ccccc2)NC(=O)[C@@H](Cc2ccccc2)NC(=O)[C@@H](CCCNC(=N)N)NC(=O)[C@@H]2CCCN2C(=O)[C@H]2CCCN2C(=O)[C@H](Cc2ccccc2)NC1=O` [Peptide 9, c[Pro-DArg-DPhe-DPhe-Asn-Ala-Phe-DPro]] yielded an EC50 (mouse MC3R [4]) of over 100 µM and a Kb (mouse MC3R [1]) of over 3.16 µM.
In the case of `C[C@@H]1NC(=O)[C@H](CC(N)=O)NC(=O)[C@@H](Cc2ccccc2)NC(=O)[C@H](Cc2ccccc2)NC(=O)[C@H](CCCNC(=N)N)NC(=O)[C@@H]2CCCN2C(=O)[C@H]2CCCN2C(=O)[C@H](Cc2ccccc2)NC1=O` [Peptide 5, c[Pro-Arg-Phe-DPhe-Asn-Ala-Phe-DPro]], the EC50 (mouse MC3R [4]) is reported as over 100 µM and the Kb (mouse MC3R [1]) is reported as over 3.16 µM.
